Assay results as given in patent US5538968A, “Geneserine derivatives processes as cholinesterase inhibitors” (priority 1991, dated 1996).

Tested on: acetylcholinesterase (AchE) in the brain
Experiment: Time course of inhibition of brain acetylcholinesterase (AchE) in the rat after s.c. administration (Ellman acetylthiocholine method, ex vivo)
Set-up: species or system rat (male Crl:CD (SD) BR)
Description: 1. Acetylcholinesterase inhibition
The time course of inhibition of acetylcholinesterase (AchE) in the brain was assessed in male Crl:CD (SD) BR rats (Charles River Italia), weighing between 150-250 g.
The test substances were administered by s.c. route, dissolved in 2 ml/kg of sterile saline. 9 animals/group/time were used.
Controls received the vehicle only.
At various intervals (10-60-120-240 min) after administration the rats were sacrificed by decapitation and the brains were rapidly removed, weighed and immediately placed in 1 ml of phosphate buffer 0.1M, pH 8.0, added with 1% Triton 100 (Merck).
After homogenization and centrifugation at 19943 g for 15 min at 4° C. the surnatant was separated and used for the determination of AchE activity according to the acetyltiocholine method described by Ellmann (Ellman G. L. et al., Biochem. Pharmacol. 7, 88, 1961).
The activity concentrations obtained (U/l surnatant) were individually corrected for the brain weight.
Compounds were given by s.c. route, dissolved in 2 ml/kg of saline. Brain
were homogenized in 2 ml of phosphate buffer 0.1 M, pH 8.0 added with 1%
Triton 100. AchE activity was determined in the surnatant after
centrifugation. Concentrations values were corrected for the brain weight
Statistical significance vs control ("t" Student's test): […]

`CNC(=O)Oc1ccc2c(c1)[C@]1(C)CCN(C)[C@@H]1N2C` [Physostigmine] was tested. Which “Max % inhib. of brain acetylcholinesterase” value (0.4 mg/kg s.c.) did it give?
The value was 53%.

And the “T max (time of the maximal inhibition)” value (0.4 mg/kg s.c.)?
Its value is 10 min.

And the “Brain acetylcholinesterase % inhib.” value (0.4 mg/kg s.c., 10 min, ** P < 0.01)?
The value was 53%.

And the “Brain acetylcholinesterase % inhib.” value (0.4 mg/kg s.c., 60 min, ** P < 0.01)?
Its value is 51%.

What about the “Brain acetylcholinesterase % inhib.” value (0.4 mg/kg s.c., 120 min, ** P < 0.01) of the same molecule?
The value was 34%.

And the “Brain acetylcholinesterase % inhib.” value (0.4 mg/kg s.c., 240 min)?
Its value is 11%.

What about the “Factor of reduction of effect 120 min. after the treatment” value (s.c., 120 min vs peak) of the same molecule?
The value was 1.5-2.

What about the “Onset of effect compared with CHF 2060” value (s.c., vs 9 mg/kg CHF 2060, comparable AUC and maximum inhibition) of the same molecule?
Its value is “more rapid effect”.
